Experimental data from patent EP2365091A1, “Method of screening for HtrA protease inhibitors useful for prophylaxis and therapy of a bacterial infection” (Paul-Ehrlich-Institut, priority 2010, dated 2011).

Amino acid sequences for entries named in this document (tags omitted). Residues count along the entry.
UniProt P09237, 95-267 limits assumed: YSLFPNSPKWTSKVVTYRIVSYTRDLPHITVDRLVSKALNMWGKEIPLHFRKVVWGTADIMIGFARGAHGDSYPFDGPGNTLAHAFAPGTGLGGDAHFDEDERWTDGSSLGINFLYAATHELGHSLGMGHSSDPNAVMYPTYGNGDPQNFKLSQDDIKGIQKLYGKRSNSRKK

Key:
[1] = target: T1, MMP-7 (Homo sapiens, UniProt P09237); assay: In vitro cleavage of recombinant E-Cadherin by MMP-7 (Western blot); format: biochemical; details: 5 ng/µl MMP-7, 16 h, increasing concentrations (Fig. 8B)
Procedure: For in vitro cleavage studies, recombinant E-Cadherin, EGFR and JAM chimera, IgA or Casein, (R&D Systems, Wiesbaden, Germany) were incubated with HtrA^wt, HtrA^S205A or MMP7 in 50 mM HEPES (pH 7.4) at 37°C for 16 h. Where indicated, HHI or MMP inhibitor II were added. Reactions were stopped by boiling in Laemmli buffer, followed by 8% SDS-PAGE and Western blotting.

[2] = target: T1, MMP-7; details: stated in legend of Fig. 8B; 5 ng/µl MMP-7; cited from earlier work

Which “degradation of recombinant E-Cadherin by recombinant MMP-7” value [1] does the source give for `COc1ccc(S(=O)(=O)N2CC(C)(C)CN(S(=O)(=O)c3ccc(OC)cc3)C2C(=O)NO)cc1` here?
The value was “inhibited”.

And the IC50 [2]?
Its IC50 is 30 nM.
